Results taken from patent US6858645B2, “Tartrate salts of (R) -3-N,N- dicyclobutylamino-8-fluoro-3,4-dihydro-2H-1- benzopyran-5-carboxamide” (AstraZeneca AB, priority 1997, dated 2005).

Experiments:
[1] = thermogravimetric measurement
[2] = Moisture sorption analysis (absorption and desorption), VTI microbalance, as a measure of physical stability; type: physicochemical; details: 25° C.
Protocol: Determination of Stability […] The moisture sorption analysis, absorption and desorption, respective was performed using a VTI microbalance, Model […] (VTI Corporation, USA) linked to an IBM PC. The relative humidity (RH) within the balance was monitored using a dew point analyser. […] The desorption profile was also obtained.

(R)-3-N,N-Dicyclobutylamino-8-fluoro-3,4-dihydro-2H-1-benzopyran-5-carboxamide Hydrogen (2R,3R)-Tartrate [Example 1]
initial weight loss (thermogravimetric) [1]: 0.997 % w/w
moisture absorbed ([2]; RH of 90%): about 4.2 % (w/w)
desorption profile ([2]; desorption after exposure up to 90% RH): the moisture taken up is firmly bound and that the sample has formed a monohydrate
